The source of these data is patent EP1881000A1, “Conjugates of 2-fluoro-2-deoxy-glucose and their uses as anti cancer agents” (INSTITUT NATIONAL DE LA SANTE ET DE LA RECHERCHE MEDICALE …, priority 2006, dated 2008).

The data set in a line: Determination of the Maximum Tolerated Dose (MTD), acute toxicity after a single IP injection. The format is in vivo, male OF1 mice. More on the design: key: per mouse 0 = absent, 1 = present per sign; summed over group. As to conditions: group sum. As to the method: Drugs were dissolved in a mixture of dimethylacetamide (Sigma) and oleic macrogolglycerides (Labrafil® M1944Cs, Gattefossé) (10:90%, vol/vol).
Initially, the Maximum Tolerated Dose (MTD) after intraperitoneal (IP) administration was determinated.
For MTD determination, study was conducted on male OF1 mice weighing about 30 g, 6-weeks old (Charles River, France). Groups of five to six mice received a single IP injection of each drug at variable doses according to the compound (see Tables 2, 3 and 4).
Individual dose were based on the body weight of each mouse. All the mice received a constant injection volume of 250 µL per 25 g of body weight. A group of seven control mice received the vehicle.
After IP injection, mice were weighed and observed every two days over a 2 week-period to evaluate general clinical state. For each animal, a clinical state score (CSS) was calculated based on the absence (value 0) or presence (value 1) of diarrhoea, lethargy, rough coat and closed eyes. CSS was then calculated per group by summing individual scores. Loss of weight and mortality were also recorded.

Turning to `O=C(O)CCCc1ccc(N(CCCl)CCCl)cc1` [chlorambucil, reference compound], the “Clinical State Score (CSS) closed eyes” value by setting is: (single IP 0.0175 mmol/kg) 0; (single IP 0.035 mmol/kg) 0; (single IP 0.07 mmol/kg) 0; (single IP 0.09 mmol/kg) 0. For the same compound, the “Clinical State Score (CSS) rough coat” value reads like this: (single IP 0.0175 mmol/kg) 0; (single IP 0.05 mmol/kg) 0. Further, the “Clinical State Score (CSS) diarrhoea” value (single IP 0.035 mmol/kg) was determined as 2. The “Clinical State Score (CSS) lethargy” value reads like this: (single IP 0.07 mmol/kg) 0; (single IP 0.09 mmol/kg) 0.
